The target of the test is Muscarinic acetylcholine receptor M1/M2/M3/M4/M5 (UniProt P08482+P08483+P08485+P08911+P10980). The test can be described thus: ASSAY_NAME: ChEMBL_138261 (CHEMBL743978) […].

Amino acid sequences for entries named in this document (tags omitted). A change or cut given only in a name is not applied to a line headed by its entry. Chains listed by the source or under a name are the forms on record and can include a tag or linker. Residues count along the entry.
UniProt P08482: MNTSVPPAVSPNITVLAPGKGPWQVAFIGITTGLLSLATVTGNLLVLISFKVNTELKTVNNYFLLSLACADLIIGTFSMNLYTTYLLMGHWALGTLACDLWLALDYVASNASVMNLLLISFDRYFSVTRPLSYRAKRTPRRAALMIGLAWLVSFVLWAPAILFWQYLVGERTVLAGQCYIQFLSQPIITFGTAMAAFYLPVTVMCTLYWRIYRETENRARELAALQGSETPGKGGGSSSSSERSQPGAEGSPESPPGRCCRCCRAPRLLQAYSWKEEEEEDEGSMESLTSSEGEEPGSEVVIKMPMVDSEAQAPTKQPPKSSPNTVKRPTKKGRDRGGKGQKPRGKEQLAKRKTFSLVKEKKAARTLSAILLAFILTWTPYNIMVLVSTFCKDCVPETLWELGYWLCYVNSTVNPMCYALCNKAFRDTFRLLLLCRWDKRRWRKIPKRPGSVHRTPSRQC
UniProt P08483, whole entry: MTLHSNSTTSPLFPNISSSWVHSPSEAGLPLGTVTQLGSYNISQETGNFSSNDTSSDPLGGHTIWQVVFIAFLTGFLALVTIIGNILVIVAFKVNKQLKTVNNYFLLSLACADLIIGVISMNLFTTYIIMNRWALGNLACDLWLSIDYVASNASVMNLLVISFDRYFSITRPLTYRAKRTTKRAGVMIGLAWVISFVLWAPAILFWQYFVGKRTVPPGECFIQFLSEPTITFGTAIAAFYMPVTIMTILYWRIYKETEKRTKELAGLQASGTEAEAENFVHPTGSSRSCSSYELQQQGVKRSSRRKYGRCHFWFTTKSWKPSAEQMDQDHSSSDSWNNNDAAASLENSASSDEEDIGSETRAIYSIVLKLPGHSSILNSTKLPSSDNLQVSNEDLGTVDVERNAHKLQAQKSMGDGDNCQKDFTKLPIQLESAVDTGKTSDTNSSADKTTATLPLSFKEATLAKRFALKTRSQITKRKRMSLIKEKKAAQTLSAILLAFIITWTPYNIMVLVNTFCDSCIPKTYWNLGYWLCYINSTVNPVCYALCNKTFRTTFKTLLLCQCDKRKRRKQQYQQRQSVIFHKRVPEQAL
UniProt P08485, 3-478 with tags or gaps: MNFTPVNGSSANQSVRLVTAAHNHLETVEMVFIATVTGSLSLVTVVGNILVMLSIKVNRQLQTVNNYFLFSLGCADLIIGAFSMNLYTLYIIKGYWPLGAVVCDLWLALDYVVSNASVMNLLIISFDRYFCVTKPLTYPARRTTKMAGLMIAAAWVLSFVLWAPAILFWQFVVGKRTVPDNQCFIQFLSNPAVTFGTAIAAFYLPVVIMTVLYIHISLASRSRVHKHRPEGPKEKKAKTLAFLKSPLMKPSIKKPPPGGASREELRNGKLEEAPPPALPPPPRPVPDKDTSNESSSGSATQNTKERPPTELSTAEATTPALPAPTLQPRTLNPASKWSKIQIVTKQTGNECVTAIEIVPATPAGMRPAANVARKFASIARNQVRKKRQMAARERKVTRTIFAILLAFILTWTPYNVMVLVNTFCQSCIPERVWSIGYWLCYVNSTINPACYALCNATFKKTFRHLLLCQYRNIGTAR
UniProt P08911, whole entry: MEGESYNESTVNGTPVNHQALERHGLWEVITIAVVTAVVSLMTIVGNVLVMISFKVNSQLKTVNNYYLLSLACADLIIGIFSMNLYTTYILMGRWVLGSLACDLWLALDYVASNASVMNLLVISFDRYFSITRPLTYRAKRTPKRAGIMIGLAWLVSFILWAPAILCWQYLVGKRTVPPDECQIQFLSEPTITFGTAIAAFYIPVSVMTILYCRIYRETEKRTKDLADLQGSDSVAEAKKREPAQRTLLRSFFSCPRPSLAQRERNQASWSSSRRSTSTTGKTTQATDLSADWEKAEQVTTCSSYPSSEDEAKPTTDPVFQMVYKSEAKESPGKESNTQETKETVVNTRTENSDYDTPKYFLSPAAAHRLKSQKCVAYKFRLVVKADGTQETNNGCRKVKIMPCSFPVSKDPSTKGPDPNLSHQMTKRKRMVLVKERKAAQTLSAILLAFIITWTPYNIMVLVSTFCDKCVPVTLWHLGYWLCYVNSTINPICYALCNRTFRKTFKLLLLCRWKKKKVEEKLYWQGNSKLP
UniProt P10980, whole entry: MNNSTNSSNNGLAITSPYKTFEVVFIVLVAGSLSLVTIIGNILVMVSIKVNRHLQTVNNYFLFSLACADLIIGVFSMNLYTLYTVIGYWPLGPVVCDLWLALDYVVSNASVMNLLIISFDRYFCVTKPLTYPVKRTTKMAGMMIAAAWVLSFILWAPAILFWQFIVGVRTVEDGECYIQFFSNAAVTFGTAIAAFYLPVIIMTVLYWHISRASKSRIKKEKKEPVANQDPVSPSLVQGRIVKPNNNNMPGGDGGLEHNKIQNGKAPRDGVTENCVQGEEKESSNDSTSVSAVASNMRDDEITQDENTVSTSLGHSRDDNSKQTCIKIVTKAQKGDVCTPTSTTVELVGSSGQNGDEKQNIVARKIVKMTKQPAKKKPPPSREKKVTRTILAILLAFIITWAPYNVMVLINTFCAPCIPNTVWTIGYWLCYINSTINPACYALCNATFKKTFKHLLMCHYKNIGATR

Structures are written as SMILES.

For `C[N+]12CCC(CC1)C(OC(=O)C(O)(CN1CCOCC1)c1ccccc1)C2` (stereo unspecified), the Ki (in general, a dissociation constant, usually derived from enzyme kinetics or from competition with a known ligand) was found to be 3.98 µM.

These data come from BindingDB's records for 2296026.
